Laboratory results: patent US20040077832A1

Target: Bcl-2, P10415
Assay: co-immunoprecipitation (anti-HA) and anti-Bcl-2 western blot, co-transfected 911 cells
Conditions: remark: other sources report otherwise

B1: HA-tagged full length human JFY1 protein, Q9BXH1 1-193 (protein, not shown: small tags and cut ends)
chain: MARARQEGSSPEPVEGLARDGPRPFPLGRLVPSAVSCGLCEPGLAAAPAAPTLLPAAYLCAPTAPPAVTAALGGSRWPGGPRSRPRGPRPDGPQPSLSLAEQHLESPVPSAPGALAGGPTQAAPGVRGEEEQWAREIGAQLRRMADDLNAQYERRRQEEQQRHRPSPWRVLYNLIMGLLPLPRGHRAPEMEPN
For B1, which fraction of Bcl-2 bound is on record?
Its fraction of Bcl-2 bound is 50%.
